# Experimental melting point values from OPERA 2.9

Data: OPERA 2.9 data sets, kmansouri/OPERA on GitHub.

The melting point is given in degrees Celsius. Cells with "–" have no entry in this list.

SMILES	name	mp (°C)
CCOc1ccc(S(=O)(=O)NN)cc1	4-ethoxybenzenesulfonohydrazide	115
COc1ccc(N2C(=O)C=CC2=O)c(OC)c1	1-(2,4-Dimethoxyphenyl)-1H-pyrrole-2,5-dione	126
CCCCCCCCCCCCCCCCCC(=O)OCC(CC)CCCC (centres undefined)	2-Ethylhexyl octadecanoate	10
Cn1ccc(C(=O)O)cc1=O	1-methyl-2-oxo-1,2-dihydropyridine-4-carboxylic acid	220
COc1ccc(CC(C#N)C(=O)O)cc1OC (centres undefined)	2-Cyano-3-(3,4-dimethoxyphenyl)propanoic acid	140.6
O=C(CCl)Nc1ccccc1-c1ccccc1	N-Biphenyl-2-yl-2-chloro-acetamide	104
CN1CCN(C(=O)CC#N)CC1	3-(4-methylpiperazin-1-yl)-3-oxopropanenitrile	119
CCN(CC)c1ccc2c(c1)Oc1cc(N(CC)CC)ccc1C21OC(=O)c2ccccc21	C.I. Solvent Red 49	140.1
O=C(O)C1CC1C(=O)O (centres undefined)	Cyclopropane-1,2-dicarboxylic acid	178
Nc1c(C(=O)O)cc(Br)c2c1C(=O)c1ccccc1C2=O	–	314
NCC(O)CN1CCOCC1 (centres undefined)	1-Amino-3-(morpholin-4-yl)propan-2-ol	38
O=C1c2ccccc2C(=O)N1CC1CO1 (centres undefined)	1H-Isoindole-1,3(2H)-dione, 2-(2-oxiranylmethyl)-	99
Nc1ccccc1NC(=O)c1ccccc1	N-(2-aminophenyl)benzamide	150
O=C/C=C/[O-].[Na+]	Malonaldehyde, sodium salt	111.1
CN(C)C(=O)c1cccnc1Cl	2-chloro-N,N-dimethylnicotinamide	70
NC(=O)N1CCCC1	1-Pyrrolidinecarboxamide	223
CCCCCCC(=O)OCC(COC(=O)CCCCCC)OC(=O)CCCCCC	1,2,3-Propanetriyl triheptanoate	-32.5
CCCNC(=O)C1CNc2ccccc2O1 (centres undefined)	N-propyl-3,4-dihydro-2H-1,4-benzoxazine-2-carboxamide	130
Cn1c(-c2ccccc2Cl)n[nH]c1=S	5-(2-chlorophenyl)-4-methyl-4H-1,2,4-triazole-3-thiol	145
CCCc1ccc(-c2ccc(OCC)c(F)c2F)cc1	–	49.8
Clc1cc(N2CCCCC2)ncn1	4-chloro-6-piperidin-1-ylpyrimidine	78.5
COC(=O)C(=O)CC(=O)c1ccc(OC)cc1OC	methyl 4-(2,4-dimethoxyphenyl)-2,4-dioxobutanoate	102
Nc1cccc(N2CCNC2=O)c1	1-(3-Aminophenyl)imidazolidin-2-one	150
CCNc1ccc(C(=O)OCC)cc1[N+](=O)[O-]	4-Ethylamino-3-nitro-benzoic acid ethyl ester	93
Nc1nc2ccc(S(=O)(=O)[O-])cc2s1.[Li+]	Lithium 2-aminobenzothiazole-6-sulphonate	387
C=C(C)C(=O)OCC1CC2CC1C1CCC(COC(=O)C(=C)C)C21 (centres undefined)	–	-59
CC(C)c1cc(C(C)C)c([N+](=O)[O-])cc1[N+](=O)[O-]	1,5-Dinitro-2,4-di(propan-2-yl)benzene	78
Brc1ccc2[nH]c3c(c2c1)CNCC3	8-bromo-2,3,4,5-tetrahydro-1H-pyrido[4,3-b]indole	217
CCCCCCCCCC(=O)OCCCC	Butyl decanoate	-20.3
C=COCCOC	1-Methoxy-2-vinyloxyethane	-83
Cc1cccc(C)c1OS(=O)(=O)c1ccc(O)cc1	2,6-Dimethylphenyl 4-hydroxybenzenesulfonate	150.7
CCN(CC)CCCNC(=O)c1ccc([N+](=O)[O-])cc1.Cl	N-[3-(Diethylamino)propyl]-4-nitrobenzamide hydrochloride	69
COC1=CC2=CC[C@H]3[C@@H]4[C@@H]5C[C@@H]5[C@](O)(CCC5OCCO5)[C@@]4(C)CC[C@@H]3[C@@]2(C)CC1	–	174

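The numbers are reported measurements, compiled and curated for the OPERA QSAR suite. The files give a single number for a compound and property, which may rest on several reports. Conditions of the individual experiments are not part of the data. Where a salt, mixture or single isomer is drawn, the source does not say that exactly this form was tested. Unmarked limits or estimates from the upstream databases cannot be ruled out.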